Measurements reported in ChEMBL document CHEMBL3596130 (Bioorg Med Chem Lett, 2015).

Protein sequences, listed by entry. Tags and fused reporters are not part of them. Lines headed by an entry give the natural chain unless they say otherwise; changes in a name come on top.
UniProt P41145: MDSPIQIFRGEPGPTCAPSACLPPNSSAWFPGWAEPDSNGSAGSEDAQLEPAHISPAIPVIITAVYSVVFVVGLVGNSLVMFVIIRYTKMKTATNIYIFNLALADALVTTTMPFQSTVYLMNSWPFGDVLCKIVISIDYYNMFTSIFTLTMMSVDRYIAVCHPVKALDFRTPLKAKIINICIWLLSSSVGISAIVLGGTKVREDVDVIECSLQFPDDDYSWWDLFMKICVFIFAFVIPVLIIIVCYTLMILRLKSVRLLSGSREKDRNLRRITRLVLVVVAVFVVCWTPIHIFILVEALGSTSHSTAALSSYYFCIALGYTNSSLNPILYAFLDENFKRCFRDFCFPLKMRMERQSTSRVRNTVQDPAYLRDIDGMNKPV

Molecular target: Kappa-type opioid receptor (Homo sapiens, UniProt P41145)
Experiment: Displacement of [3H]U-69,593 from human KOR expressed in CHO cells
Format: cell-based

Oc1ccc2c3c1O[C@H]1c4[nH]c5ccccc5c4C[C@@]4(O)[C@@H](C2)N(CC2CC2)CC[C@]314 [NALTRINDOLE]
Ki: 14.7 nM
